This is an account of results in patent US9126941B2.

Sequences of proteins named here, by UniProt entry; tags and fusion partners are left off. A change or cut given only in a name is not applied to a line headed by its entry.
UniProt P10275: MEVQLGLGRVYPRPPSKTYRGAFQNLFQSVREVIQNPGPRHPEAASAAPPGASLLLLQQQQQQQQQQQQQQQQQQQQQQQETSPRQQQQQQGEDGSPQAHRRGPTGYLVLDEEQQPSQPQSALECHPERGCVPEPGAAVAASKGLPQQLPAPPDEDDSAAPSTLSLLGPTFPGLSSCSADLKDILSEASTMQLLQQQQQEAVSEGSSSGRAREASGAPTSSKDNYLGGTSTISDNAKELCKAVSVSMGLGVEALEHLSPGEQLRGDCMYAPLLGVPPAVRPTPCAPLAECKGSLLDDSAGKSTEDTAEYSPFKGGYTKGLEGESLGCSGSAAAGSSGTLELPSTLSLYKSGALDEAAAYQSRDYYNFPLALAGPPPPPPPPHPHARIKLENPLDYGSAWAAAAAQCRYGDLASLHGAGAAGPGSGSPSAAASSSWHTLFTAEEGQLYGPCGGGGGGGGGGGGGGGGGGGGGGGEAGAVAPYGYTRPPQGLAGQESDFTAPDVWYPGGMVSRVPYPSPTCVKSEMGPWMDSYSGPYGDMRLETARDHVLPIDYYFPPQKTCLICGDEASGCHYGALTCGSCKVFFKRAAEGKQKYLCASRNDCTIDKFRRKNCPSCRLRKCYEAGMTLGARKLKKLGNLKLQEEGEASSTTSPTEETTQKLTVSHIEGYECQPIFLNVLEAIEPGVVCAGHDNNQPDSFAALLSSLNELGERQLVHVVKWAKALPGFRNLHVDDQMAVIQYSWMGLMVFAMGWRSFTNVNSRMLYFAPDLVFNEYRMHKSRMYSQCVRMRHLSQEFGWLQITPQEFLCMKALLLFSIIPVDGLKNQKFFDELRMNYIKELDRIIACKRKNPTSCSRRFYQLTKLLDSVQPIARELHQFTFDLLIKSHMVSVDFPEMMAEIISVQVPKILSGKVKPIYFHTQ

This assay addresses AR (Homo sapiens, UniProt P10275). In words: cell-based.

Usually IC50 stands for the point on the concentration scale where inhibition reaches its midpoint. A higher IC50 goes with a need for much substance. Regarding `CCOC(=O)/C=C/c1ccc(N2C(=S)N(c3ccc(C#N)c(C(F)(F)F)c3)C(=O)C23CCC3)cc1` [RD117, 3-{4-[7-(4-cyano-3-trifluoromethylphenyl)-8-oxo-6-thioxo-5,7-diazaspiro[3.4]oct-5-yl]-phenyl}-acrylic acid ethyl ester], the IC50 worked out at 197 nM.
